Target: VX-inhibited hAChE (Homo sapiens, UniProt P22303)
Test: Reactivability of VX-inhibited hAChE by mice plasma sampled after i.p. oxime (pharmacodynamic clearance)
Settings: 23.3 µmol/kg i.p.

SMILES: O/N=C/c1nc(CCCCNc2c3c(nc4ccccc24)CCCC3)ccc1O
- React Max (peak of reactivability): 5.1 ± 1.1%
